Experimental data published in publication PMC10987521, “An all-in-one tetrazine reagent for cysteine-selective labeling and bioorthogonal activable prodrug construction” (Nature Communications, 2024).

System: B16F10 melanoma tumor
Experiment: In vivo anticancer efficacy, subcutaneous B16F10 melanoma tumor model
Set-up: species or system BALB/c nude mice
Description: Tumor-bearing mice were established by subcutaneously injecting a suspension of 5 × 10^5 B16F10 cells per mouse into the front flank of each nude mouse. When tumor volume reached 50−70 mm^3, the animals were randomly divided into five groups (n = 5). The mice were administered different compounds suspended in PBS via the tail vein every 3 days for a total of four times.
The mice underwent four treatment courses on day 0, day 3, day 6, and day 9. Tumor size and body weight were measured every day. Tumor volume was calculated via the following formula: V = 1/2 × (minor axis) × (major axis)[2].
After 12 days, the mice were sacrificed and dissected to obtain tumor tissues and main organs, including heart, liver, spleen, lung, and kidney. Subsequently, all tissues were fixed in a 4% paraformaldehyde solution, routinely paraffin-embedded and sectioned, and then stained with hematoxylin and eosin, as well as using TdT-mediated dUTP nick-end labeling (TUNEL) for subsequent pathological analysis. TUNEL-positive cells appeared fluorescent green, representing the apoptosis of tumor cells (nuclei were fluorescent blue, stained with DAPI).
13. In vivo anticancer efficacy […]
13.2 Calculation of the tumor growth inhibition values (TGI)
Tumor growth inhibition values (TGI) were calculated using the following formula: TGI (%) = (1 − RTVtreatment/
RTVcontrol)*100. RTV refers to relative tumor volume, representing the ratio of the volume at the end of treatment to the
volume at the beginning of treatment. […]

## COc1cccc2c1C(=O)c1c(O)c3c(c(O)c1C2=O)C[C@@](O)(C(=O)CO)C[C@@H]3O[C@H]1C[C@H](N)[C@H](O)[C@H](C)O1 [Dox, doxorubicin]
Data 1
  tumor growth inhibition values (TGI %): 61.6%
Data 2
  tumor growth inhibition values (TGI %): 62.21%
Data 4
  tumor growth inhibition values (TGI %): 62.1%
